# Assays:
# By UniProt entry, the sequences of proteins in these tests, tags left out. Where a name states a change or a piece, a line headed by the entry shows the natural chain unless it says otherwise.
# UniProt P81908, whole entry: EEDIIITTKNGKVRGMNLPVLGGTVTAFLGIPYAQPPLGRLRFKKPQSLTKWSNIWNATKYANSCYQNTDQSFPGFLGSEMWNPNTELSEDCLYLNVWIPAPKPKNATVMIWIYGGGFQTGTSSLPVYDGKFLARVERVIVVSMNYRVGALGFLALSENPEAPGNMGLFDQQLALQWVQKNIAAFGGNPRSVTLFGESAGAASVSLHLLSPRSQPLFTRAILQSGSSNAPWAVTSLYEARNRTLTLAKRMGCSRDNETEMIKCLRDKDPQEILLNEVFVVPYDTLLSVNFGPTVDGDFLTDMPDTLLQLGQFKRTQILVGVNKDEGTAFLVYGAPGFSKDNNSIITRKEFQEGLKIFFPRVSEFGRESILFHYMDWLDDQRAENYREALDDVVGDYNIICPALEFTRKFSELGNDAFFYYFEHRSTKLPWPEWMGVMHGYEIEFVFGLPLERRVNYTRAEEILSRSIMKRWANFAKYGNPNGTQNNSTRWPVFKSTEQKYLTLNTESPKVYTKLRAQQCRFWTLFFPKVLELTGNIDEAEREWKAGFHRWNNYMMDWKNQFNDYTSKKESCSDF
# UniProt O42275: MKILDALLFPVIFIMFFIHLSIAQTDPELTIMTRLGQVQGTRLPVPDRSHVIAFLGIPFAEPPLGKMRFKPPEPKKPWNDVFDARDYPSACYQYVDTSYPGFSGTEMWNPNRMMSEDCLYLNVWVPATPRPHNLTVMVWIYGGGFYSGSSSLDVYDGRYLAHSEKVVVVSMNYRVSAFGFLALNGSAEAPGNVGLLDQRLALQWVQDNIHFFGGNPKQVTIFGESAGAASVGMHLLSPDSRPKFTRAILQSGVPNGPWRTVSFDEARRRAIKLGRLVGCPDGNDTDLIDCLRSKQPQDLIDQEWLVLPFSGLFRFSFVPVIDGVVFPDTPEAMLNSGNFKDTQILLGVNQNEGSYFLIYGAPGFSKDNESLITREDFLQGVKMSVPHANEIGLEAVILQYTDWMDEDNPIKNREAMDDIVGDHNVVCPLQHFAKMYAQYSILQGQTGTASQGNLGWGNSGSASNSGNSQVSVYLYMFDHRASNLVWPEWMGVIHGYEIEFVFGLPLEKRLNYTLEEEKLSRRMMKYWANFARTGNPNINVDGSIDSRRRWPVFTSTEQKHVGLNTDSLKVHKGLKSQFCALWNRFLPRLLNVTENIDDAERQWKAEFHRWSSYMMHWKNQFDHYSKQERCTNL
# [1] = biological target: Cholinesterase (Equus caballus, UniProt P81908); assay: Inhibition of equine serum BChE by Ellman's method
# Procedure, shortened: (§1)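 Ellman assay on electric eel AChE or equine serum BChE at 25 °C, absorbance 412 nm. Ethanol stocks diluted into assay, highest final concentration 10^-4 M. For curves, at least five concentrations (normally 10^-4 to 10^-9 M), each in triplicate; at least 3 independent determinations.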
# [2] = biological target: Acetylcholinesterase (Electrophorus electricus, UniProt O42275); assay: Inhibition of electric eel AChE by Ellman's method; procedure, shortened: as §1
structure (smiles),measurement,setting,value
CNC(=O)Oc1ccc2c(c1)[C@]1(C)CCN(C)[C@@H]1N2C [PHYSOSTIGMINE],IC50,[1],60 nM
same,IC50,[2],7.7 nM

# — ChEMBL document CHEMBL3259661, “Identification of a neuroprotective and selective butyrylcholinesterase inhibitor derived from the natural alkaloid evodiamine” (Eur J Med Chem, 2014)
